Values quoted from earlier work in publication PMC11736853.

Legend:
[1] = biological target: FYCO1 peptide 49 (Homo sapiens) (UniProt Q9BQS8); test: FP
[2] = biological target: FYCO1 peptide 51 (Homo sapiens) (UniProt Q9BQS8); test: FP

Substance: LC3B (from UniProt Q9GZQ8)
- Kd [1]: 0.29 µM
- Kd [2]: 0.2 µM
